Membrane permeability of cyclic peptides

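The data file gives no further conditions (lipid, pH, time, direction or concentration), and values from different papers need not be comparable. The list need not hold all peptides of the study. Peptides that the database sets to -10, its floor, are left out.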

PAMPA measures passive passage through an artificial lipid membrane. P is given in units of 10^-6 cm/s (from log10 values with two decimals); larger means faster passage.

compound,PAMPA (10^-6 cm/s)
CC(C)C[C@@H]1NC(=O)[C@@H]2CCCN2C(=O)CN(Cc2ccccc2)C(=O)[C@@H](CC(C)C)N(C)C(=O)[C@@H](C)NC(=O)[C@H](Cc2ccccc2)NC1=O,0.81
CC(C)C[C@@H]1C(=O)N(Cc2ccccc2)CC(=O)N2CCC[C@H]2C(=O)N(C)[C@@H](CC(C)C)C(=O)N[C@@H](Cc2ccccc2)C(=O)N2CCC[C@@H]2C(=O)N[C@@H](C)C(=O)N1C,2.8
CC(C)C[C@@H]1C(=O)N[C@@H](Cc2ccccc2)CC(=O)N2CCC[C@@H]2C(=O)N[C@H](CC(C)C)C(=O)N[C@@H](Cc2ccccc2)C(=O)N2CCC[C@@H]2C(=O)N[C@H](C)C(=O)N1C,0.85
CC(C)C[C@@H]1NC(=O)[C@@H]2CCCN2C(=O)[C@H](CC(C)C)NC(=O)CN(Cc2ccccc2)C(=O)[C@H](C)N(C)C(=O)[C@H](Cc2ccccc2)NC1=O,1.3
CC(C)C[C@@H]1NC(=O)C[C@H](Cc2ccccc2)NC(=O)[C@H]2CCCN2C(=O)[C@H](Cc2ccccc2)NC(=O)[C@@H](CC(C)C)NC(=O)[C@@H]2CCCN2C(=O)[C@H](CC(C)C)NC1=O,1.1
CCCN1CC(=O)N(C)[C@@H](CC(C)C)C(=O)N(C)[C@H](CC(C)C)C(=O)N2CCC[C@@H]2C(=O)N[C@H](CC(C)C)C(=O)N[C@@H](Cc2ccccc2)C1=O,8.9
CC(C)C[C@@H]1C(=O)N[C@H](CC(C)C)C(=O)N2CCC[C@H]2C(=O)N(C)[C@H](CC(C)C)C(=O)N[C@@H](Cc2ccccc2)C(=O)N[C@@H](C)C(=O)N1C,6
CC(C)C[C@@H]1C(=O)N[C@@H](Cc2ccccc2)C(=O)N[C@H](C)C(=O)N(C)[C@@H](CC(C)C)C(=O)N(C)[C@@H](CC(C)C)C(=O)N2CCC[C@@H]2C(=O)N1C,9.8
CC(C)C[C@@H]1C(=O)N(Cc2ccccc2)CC(=O)N2CCC[C@@H]2C(=O)N[C@H](CC(C)C)C(=O)N[C@@H](Cc2ccccc2)C(=O)N[C@H](C)C(=O)N1C,6.3
CC(C)C[C@@H]1C(=O)N2CCC[C@H]2C(=O)N(C)[C@H](CC(C)C)C(=O)N[C@@H](Cc2ccccc2)C(=O)N2CCC[C@@H]2C(=O)N[C@@H](C)C(=O)N(C)[C@@H](CC(C)C)C(=O)N1C,5.9
CCCN1CC(=O)N(C)[C@H](CC(C)C)C(=O)N[C@H](CC(C)C)C(=O)N2CCC[C@H]2C(=O)N(Cc2ccccc2)CC(=O)N[C@@H](Cc2ccccc2)C(=O)N2CCC[C@H]2C1=O,6.2
CC(C)C[C@@H]1NC(=O)[C@@H](CC(C)C)N(C)C(=O)[C@@H](C)NC(=O)[C@H]2CCCN2C(=O)[C@H](Cc2ccccc2)NC(=O)[C@H](CC(C)C)N(C)C(=O)[C@@H]2CCCN2C1=O,2.6
CC(C)C[C@H]1NC(=O)[C@H]2CCCN2C(=O)[C@@H](CC(C)C)NC(=O)[C@@H](CC(C)C)NC(=O)[C@@H](C)NC(=O)[C@H]2CCCN2C(=O)[C@H](Cc2ccccc2)NC1=O,0.16
CC(C)C[C@@H]1NC(=O)[C@H](CC(C)C)N(C)C(=O)[C@@H](C)N(C)C(=O)[C@H]2CCCN2C(=O)[C@H](Cc2ccccc2)NC(=O)CN(Cc2ccccc2)C(=O)[C@H]2CCCN2C1=O,1.8
CC(C)C[C@H]1NC(=O)[C@@H](C)NC(=O)[C@H]2CCCN2C(=O)[C@H](Cc2ccccc2)NC(=O)[C@H](CC(C)C)N(C)C(=O)[C@@H]2CCCN2C(=O)CN(Cc2ccccc2)C1=O,0.89
CC(C)C[C@@H]1C(=O)N2CCC[C@H]2C(=O)N(Cc2ccccc2)CC(=O)N[C@@H](Cc2ccccc2)C(=O)N2CCC[C@H]2C(=O)N(C)[C@@H](C)C(=O)N(C)[C@@H](CC(C)C)C(=O)N1C,3.3
CC(C)C[C@@H]1C(=O)N[C@@H](Cc2ccccc2)C(=O)N(C)[C@H](C)C(=O)N[C@H](CC(C)C)C(=O)N[C@H](CC(C)C)C(=O)N2CCC[C@H]2C(=O)N1C,1.6
CC(C)C[C@H]1NC(=O)[C@H](C)NC(=O)[C@@H]2CCCN2C(=O)[C@H](Cc2ccccc2)NC(=O)[C@H](CC(C)C)N(C)C(=O)[C@@H]2CCCN2C(=O)[C@H](CC(C)C)N(C)C1=O,3.1
CC(C)C[C@@H]1C(=O)N[C@H](CC(C)C)C(=O)N2CCC[C@@H]2C(=O)N(C)[C@@H](CC(C)C)C(=O)N[C@@H](Cc2ccccc2)C(=O)N2CCC[C@@H]2C(=O)N[C@@H](C)C(=O)N1C,2.8
CC(C)C[C@@H]1NC(=O)[C@@H](C)N(C)C(=O)[C@@H]2CCCN2C(=O)[C@H](Cc2ccccc2)NC(=O)[C@@H](CC(C)C)N(C)C(=O)[C@H]2CCCN2C(=O)CN(Cc2ccccc2)C1=O,1.7

The 2 highest values of PAMPA among the entries above:

{"smiles": "CC(C)C[C@@H]1C(=O)N[C@@H](Cc2ccccc2)C(=O)N[C@H](C)C(=O)N(C)[C@@H](CC(C)C)C(=O)N(C)[C@@H](CC(C)C)C(=O)N2CCC[C@@H]2C(=O)N1C", "PAMPA (10^-6 cm/s)": "9.8"}
{"smiles": "CCCN1CC(=O)N(C)[C@@H](CC(C)C)C(=O)N(C)[C@H](CC(C)C)C(=O)N2CCC[C@@H]2C(=O)N[C@H](CC(C)C)C(=O)N[C@@H](Cc2ccccc2)C1=O", "PAMPA (10^-6 cm/s)": "8.9"}

Collected by the curators of CycPeptMPDB (Li et al. 2023) from Townsend et al. 2020, doi:10.26434/chemrxiv.13335941.v1.